For orientation: pIC50 means the negative decadic logarithm of the IC50, by convention in mol/L.

Protein sequences, listed by entry. Tags and fused reporters are not part of them. Residues count along the entry.
UniProt P23458, 875-1153: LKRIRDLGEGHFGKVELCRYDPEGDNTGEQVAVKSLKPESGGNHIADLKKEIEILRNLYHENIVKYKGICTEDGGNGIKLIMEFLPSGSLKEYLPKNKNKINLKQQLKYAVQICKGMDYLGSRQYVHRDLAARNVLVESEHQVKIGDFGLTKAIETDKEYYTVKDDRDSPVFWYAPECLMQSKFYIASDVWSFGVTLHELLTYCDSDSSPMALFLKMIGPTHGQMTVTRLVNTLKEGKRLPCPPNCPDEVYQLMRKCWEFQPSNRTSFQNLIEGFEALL

The text below walks through data of US8962608B2, “Cycloalkylnitrile pyrazole carboxamides as janus kinase inhibitors” (Merck Sharp & Dohme Corp., priority 2011, dated 2015).

SMILES strings stand for the structures. pIC50: −log10 of the molar value.
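Further: biochemical assay with HTRF read-out.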

The test concerns the target JAK1 (recombinant purified GST-tagged catalytic domain) (Homo sapiens (Human), UniProt P23458). Briefly: biochemical.
For the compound `N#C[C@H]1C[C@H](O)CCC1n1cc(C(N)=O)c(Nc2ccc(F)cc2)n1` (mixture of isomers) [Example 4, 1-[(1S,2S,4R and 1R,2R,4S)-2-Cyano-4-hydroxycyclohexyl]-3-[(4-fluorophenyl)amino]-1H-pyrazole-4-carboxamide], the pIC50 is 8.30.

Take `N#C[C@H]1C[C@@H](O)CCC1n1cc(C(N)=O)c(Nc2ccc(F)cc2)n1` (mixture of isomers) [Example 5, 1-[(1S,2S,4S and 1R,2R,4R)-2-Cyano-4-hydroxycyclohexyl]-3-[(4-fluorophenyl)amino]-1H-pyrazole-4-carboxamide]: the pIC50 is 8.70. As for `N#C[C@@H]1CC(CO)CCC1n1cc(C(N)=O)c(Nc2ccc(F)cc2)n1` (mixture of isomers) [Example 8, 1-((1R,2R and 1S,2S)-2-Cyano-4-(hydroxymethyl)cyclohexyl)-3-((4-fluorophenyl)amino)-1H-pyrazole-4-carboxamide], the pIC50 was 8.70. On to `CC(C)(C)OC(=O)NC1CC[C@H](C#N)C(n2cc(C(N)=O)c(Nc3ccc(F)cc3)n2)C1` (mixture of isomers) [Example 11-3, tert-butyl [(1R,3S,4S and 1S,3R,4R) or (1S,3S,4S and 1R,3R,4R)-3-{4-carbamoyl-3-[(4-fluorophenyl)amino]-1H-pyrazol-1-yl}-4-cyanocyclohexyl]carbamate], for which the pIC50 is 8.70. Consider `CC(C)(C)OC(=O)NC1CC[C@@H](C#N)C(n2cc(C(N)=O)c(Nc3ccc(F)cc3)n2)C1` (mixture of isomers) [Example 11-4, tert-butyl [(3R,4S and 3S,4R)-3-{4-carbamoyl-3-[(4-fluorophenyl)amino]-1H-pyrazol-1-yl}-4-cyanocyclohexyl]carbamate], for which the pIC50 is 9.10. Consider `CC(C)(C)OC(=O)NC1CC[C@H](C#N)C(n2cc(C(N)=O)c(Nc3ccc(F)cc3)n2)C1` (mixture of isomers) [Example 11-5, tert-butyl [(1R,3S,4S and 1S,3R,4R) or (1S,3S,4S and 1R,3R,4R)-3-{4-carbamoyl-3-[(4-fluorophenyl)amino]-1H-pyrazol-1-yl}-4-cyanocyclohexyl]carbamate], for which the negative-log IC50 (pIC50) is 9.10. As for `CNC(=O)c1ccc(Nc2nn([C@H]3CCCC[C@@H]3C#N)cc2C(N)=O)cc1` (racemic) [Example 17-4, 1-[(1S,2S and 1R,2R)-2-cyanocyclohexyl]-3-{[4-(methylcarbamoyl)phenyl]amino}-1H-pyrazole-4-carboxamide], the pIC50 is 9.24. The value for `CS(=O)(=O)c1ccc(Nc2nn(C3CCCC[C@@H]3C#N)cc2C(N)=O)cc1F` (mixture of isomers) [Example 17-8, 1-[(1S,2S and 1R,2R)-2-cyanocyclohexyl]-3-{[3-fluoro-4-(methylsulfonyl)phenyl]amino}-1H-pyrazole-4-carboxamide] was 8.70; that for `N#C[C@H]1CCCCC1n1cc(C(N)=O)c(Nc2ccc(S(=O)(=O)C(F)F)cc2)n1` (mixture of isomers) [Example 17-9, 1-[(1S,2S and 1R,2R)-2-cyanocyclohexyl]-3-({4-[(difluoromethyl)sulfonyl]phenyl}amino)-1H-pyrazole-4-carboxamide] was 9.30; that for `CCS(=O)(=O)c1ccc(Nc2nn(C3CCCC[C@@H]3C#N)cc2C(N)=O)cc1` (mixture of isomers) [Example 17-10, 1-[(1S,2S and 1R,2R)-2-cyanocyclohexyl]-3-{[4-(ethylsulfonyl)phenyl]amino}-1H-pyrazole-4-carboxamide] was 9.46. Regarding `N#C[C@H]1CCCC[C@@H]1n1cc(C(N)=O)c(Nc2cccnc2)n1` (racemic) [Example 17-13, 1-[(1S,2S and 1R,2R)-2-cyanocyclohexyl]-3-(pyridin-3-ylamino)-1H-pyrazole-4-carboxamide], the pIC50 is 8.00.

Take `CNC(=O)c1ccc(Nc2nn([C@H]3CCCC[C@H]3C#N)cc2C(N)=O)cc1` (racemic) [Example 17-14, 1-[(1S,2R and 1R,2S)-2-cyanocyclohexyl]-3-{[4-(methylcarbamoyl)phenyl]amino}-1H-pyrazole-4-carboxamide]: the pIC50 is 7.08. The value for `CCNC1CCC(n2cc(C(N)=O)c(Nc3ccc(S(=O)(=O)C(F)(F)F)cc3)n2)[C@@H](C#N)C1` (mixture of isomers) [Example 27-5, 1-[(1S,2S and 1R,2R)-2-cyano-4-(ethylamino)cyclohexyl]-3-({4-[(trifluoromethyl)sulfonyl]phenyl}amino)-1H-pyrazole-4-carboxamide] was 9.70; that for `N#C[C@H]1CC(NC2CC2)CCC1n1cc(C(N)=O)c(Nc2ccc(S(=O)(=O)C(F)(F)F)cc2)n1` (mixture of isomers) [Example 27-10, 1-[(1S,2S and 1R,2R)-2-cyano-4-(cyclopropylamino)cyclohexyl]-3-({4-[(trifluoromethyl)sulfonyl]phenyl}amino)-1H-pyrazole-4-carboxamide] was 9.15. The value for `N#C[C@H]1C[C@@H](NCC(F)(F)F)CCC1n1cc(C(N)=O)c(Nc2ccc(S(=O)(=O)C(F)(F)F)cc2)n1` (mixture of isomers) [Example 27-11, 1-{(1S,2S,4S and 1R,2R,4R)-2-cyano-4-[(2,2,2-trifluoroethyl)amino]cyclohexyl}-3-({4-[(trifluoromethyl)sulfonyl]phenyl}amino)-1H-pyrazole-4-carboxamide] was 9.26; that for `N#C[C@H]1C[C@@H](NCC(F)F)CCC1n1cc(C(N)=O)c(Nc2ccc(S(=O)(=O)C(F)(F)F)cc2)n1` (mixture of isomers) [Example 27-14, 1-{(1S,2S,4S and 1R,2R,4R)-2-cyano-4-[(2,2-difluoroethyl)amino]cyclohexyl}-3-({4-[(trifluoromethyl)sulfonyl]phenyl)amino)-1H-pyrazole-4-carboxamide] was 9.60. Under `N#C[C@H]1C[C@@H](OC(=O)Nc2ccccc2)CCC1n1cc(C(N)=O)c(Nc2ccc(F)cc2)n1` (mixture of isomers) [Example 34-1, (1S,3S,4S and 1R,3R,4R)-4-{4-Carbamoyl-3-[(4-fluorophenyl)amino]-1H-pyrazol-1-yl}-3-cyanocyclohexyl phenylcarbamate] stands 8.15; under `N#C[C@H]1C[C@H](OC(=O)Nc2ccccc2)CCC1n1cc(C(N)=O)c(Nc2ccc(F)cc2)n1` (mixture of isomers) [Example 34-3, (1R,3S,4S and 1S,3R,4R)-4-{4-carbamoyl-3-[(4-fluorophonyl)aminol-1H-pyrazol-1-yl}-3-cyanocyclohexyl phenylcarbamate], 9.02. As for `N#C[C@H]1CCCC[C@@H]1n1cc(C(N)=O)c(Nc2ccc(C=O)cc2)n1` (single isomer, unassigned) [Example 17-25, 1-[(1S,2S or 1R,2R)-2-cyanocyclohexyl]-3-[(4-formylphenyl)amino]-1H-pyrazole-4-carboxamide], the pIC50 is 9.28.

As for `CC(C)(c1ccc(Nc2nn([C@H]3CCCC[C@@H]3C#N)cc2C(N)=O)cc1F)[C@H](O)C(F)(F)F` (single isomer, unassigned) [Example 17-32, 1-[(1S,2S or 1R,2R)-2-cyanocyclohexyl]-3-({3-fluoro-4-[(2S or 2R)-3,3,3-trifluoro-2-hydroxy-1,1-dimethylpropyl]phenyl}amino)-1H-pyrazole-4-carboxamide], the pIC50 is 8.70. The value for `CC(C)(c1ccc(Nc2nn([C@H]3CCCC[C@@H]3C#N)cc2C(N)=O)cc1F)[C@@H](O)C(F)(F)F` (single isomer, unassigned) [Example 17-33, 1-[(1S,2S or 1R,2R)-2-cyanocyclohexyl]-3-({3-fluoro-4-[(2R or 2S)-3,3,3-trifluoro-2-hydroxy-1,1-dimethylpropyl]phenyl}amino)-1H-pyrazole-4-carboxamide] was 8.70; that for `N#C[C@H]1CCCC[C@@H]1n1cc(C(N)=O)c(Nc2ccc([C@H](O)C(F)F)nc2)n1` (single isomer, unassigned) [Example 17-37, 1-[(1S,2S or 1R,2R)-2-cyanocyclohexyl]-3-({6-[(1S or 1R)-2,2-difluoro-1-hydroxyethyl]pyridin-3-yl}amino)-1H-pyrazole-4-carboxamide] was 9.17. Turning to `N#C[C@H]1CCCC[C@@H]1n1cc(C(N)=O)c(Nc2ccc([C@@H](O)C(F)F)nc2)n1` (single isomer, unassigned) [Example 17-38, 1-[(1S,2S or 1R,2R)-2-cyanocyclohexyl]-3-({6-[(1R or 1S)-2,2-difluoro-1-hydroxyethyl]pyridin-3-yl}amino)-1H-pyrazole-4-carboxamide], the negative-log IC50 (pIC50) was 9.00. On to `N#C[C@H]1CCCC[C@@H]1n1cc(C(N)=O)c(Nc2cnc3cc(Cl)ccc3c2)n1` (single isomer, unassigned) [Example 17-61, 3-[(7-chloroquinolin-3-yl)amino]-1-[(1S,2S or 1R,2R)-2-cyanocyclohexyl]-1H-pyrazole-4-carboxamide], for which the pIC50 is 8.40. On to `N#Cc1cncc(Nc2nn([C@H]3CCCC[C@@H]3C#N)cc2C(N)=O)c1` (single isomer, unassigned) [Example 17-74, 1-[(1R,2R or 1S,2S)-2-cyanocyclohexyl]-3-[(5-cyanopyridin-3-yl)amino]-1H-pyrazole-4-carboxamide], for which the pIC50 is 7.92.

As for `Cc1cc(Nc2nn([C@H]3CCCC[C@@H]3C#N)cc2C(N)=O)cnc1C#N` (single isomer, unassigned) [Example 17-77, 1-[(1R,2R or 1S,2S)-2-cyanocyclohexyl]-3-[(6-cyano-5-methylpyridin-3-yl)amino]-1H-pyrazole-4-carboxamide], the pIC50 is 8.40. Take `N#C[C@H]1CCCC[C@@H]1n1cc(C(N)=O)c(Nc2ccc(S(=O)(=O)Nc3ccc4cccnc4c3)cc2)n1` (single isomer, unassigned) [Example 17-94, 1-[(1R,2R or 1S,2S)-2-cyanocyclohexyl]-3-{[4-(quinolin-7-ylsulfamoyl)phenyl]amino}-1H-pyrazole-4-carboxamide]: the pIC50 was 8.30. In the case of `N#C[C@H]1CCCC[C@@H]1n1cc(C(N)=O)c(Nc2ccc(S(=O)(=O)N3CCOCC3)cc2)n1` (single isomer, unassigned) [Example 17-99, 1-[(1R,2R or 1S,2S)-2-cyanocyclohexyl]-3-{[4-(morpholin-4-ylsulfonyl)phenyl]amino}-1H-pyrazole-4-carboxamide], the pIC50 is 9.40.
